How the values were obtained:
HCV (−) RNA synthesis = assay: HCV (−) strand RNA synthesis in the inducible HCV replication system, RNase protection assay; format: cell-based, hepatitis C virus (genotype 1a, strain H77) in CV-1 cells; settings: IFN-α 2000 to 15,000 units/well; added at conclusion of transfection, 20 hours prior to vTF7-3

## interferon-α-2b [IFN-α]
HCV core protein
  inhibition of HCV core protein synthesis: dose-responsive inhibition
HCV (−) RNA synthesis
  inhibition of HCV (−) RNA synthesis: dose-dependent inhibition
